This is a selection; strong and weak results do not stand in their true shares. Some of these compounds have results that are not shown, active ones among them. Inconclusive results are not listed. Calls of active or inactive are those of the source. Calls follow the shape of the dose curve; as a rule, active = well fitted inhibition curve with a large enough effect; inconclusive = small, poorly fitted or top-dose-only effect, or another doubt; inactive = no such curve, though single readings can be large or run the other way.
Assay: Primary qHTS for delayed death inhibitors of the malarial parasite plastid, 48 hour incubation
Conditions: P. falciparum luciferase growth in erythrocytes; at 28.7 µM (top of the series)
From the text: The goal of this screen is to discover new antimalarial compounds that act by inhibiting the development of the apicoplast in the malarial parasite Plasmodium falciparum. The biochemical processes that make this organelle essential for erythrocytic stage parasites are not well understood. However, antibiotics such as azithromycin and tetracycline, which target the apicoplast translational machinery, have a potent antimalarial effect.
We have developed a cell-based assay that measures parasite growth based on the expression of an integrated copy of a firefly luciferase reporter. To detect small molecules that cause this "delayed death" phenotype, erythrocytes infected with the luciferase-expressing parasites were incubated with compounds for either one or two generations, corresponding to 48 and 96 hours, respectively. […] Growth inhibition is detected by a decrease in luciferase activity. […]
Four microliters of culture medium (RPMI 1640 with 0.5% w/v Albumax (GIBCO), 24 mM sodium bicarbonate and 10 ug/mL gentamycin) were dispensed by a Multi-drop Combi into white solid 1536-well plates (Grenier) and 23 nL compound was added by a pin tool. […] Two microliters of luciferase detection reagent was added and luminescence was detected by a ViewLux (PerkinElmer) reader.
% is scaled to controls: 0 for no effect and ±100 for the full control effect.

Q: For `CC(C)N1C(=O)CC2(CCN(CCOC(=O)C(O)(c3ccccc3)c3ccccc3)CC2)C1=O`, which activity change, negative = inhibition is on record?
A: inactive: 59.2%

Q: For `C=CCN1CCN(CCOC(=O)C(O)(c2ccccc2)c2ccccc2)CC1`, which activity change, negative = inhibition is on record?
A: inactive: 17.2%
